Data on 1 compound can be found in PMC10616419 (The Journal of Biological Chemistry, 2023).

The chains behind the UniProt entries cited, without tags or fusion partners.
UniProt O35433, whole entry Y511A: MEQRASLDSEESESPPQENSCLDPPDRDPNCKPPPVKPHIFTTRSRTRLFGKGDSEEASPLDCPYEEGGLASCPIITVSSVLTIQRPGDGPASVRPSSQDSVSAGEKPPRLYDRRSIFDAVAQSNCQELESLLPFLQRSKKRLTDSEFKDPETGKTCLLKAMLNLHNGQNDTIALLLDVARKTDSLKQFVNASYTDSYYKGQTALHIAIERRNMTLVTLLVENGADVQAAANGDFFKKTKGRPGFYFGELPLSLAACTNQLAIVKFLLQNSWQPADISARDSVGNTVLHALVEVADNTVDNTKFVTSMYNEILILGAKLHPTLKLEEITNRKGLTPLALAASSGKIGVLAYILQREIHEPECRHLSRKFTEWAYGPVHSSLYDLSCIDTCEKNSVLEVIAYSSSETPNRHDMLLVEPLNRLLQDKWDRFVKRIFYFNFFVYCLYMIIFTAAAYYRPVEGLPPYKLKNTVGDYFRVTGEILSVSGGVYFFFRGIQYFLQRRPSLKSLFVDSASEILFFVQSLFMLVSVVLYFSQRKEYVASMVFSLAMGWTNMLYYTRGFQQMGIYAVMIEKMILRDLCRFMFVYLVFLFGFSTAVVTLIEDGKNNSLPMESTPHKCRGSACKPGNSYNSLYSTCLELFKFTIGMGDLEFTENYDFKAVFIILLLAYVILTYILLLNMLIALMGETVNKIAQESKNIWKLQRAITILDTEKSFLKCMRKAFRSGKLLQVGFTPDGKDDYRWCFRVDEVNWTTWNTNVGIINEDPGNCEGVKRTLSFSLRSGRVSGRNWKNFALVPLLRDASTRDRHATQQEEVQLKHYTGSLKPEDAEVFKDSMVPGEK
UniProt O35433, whole entry partner: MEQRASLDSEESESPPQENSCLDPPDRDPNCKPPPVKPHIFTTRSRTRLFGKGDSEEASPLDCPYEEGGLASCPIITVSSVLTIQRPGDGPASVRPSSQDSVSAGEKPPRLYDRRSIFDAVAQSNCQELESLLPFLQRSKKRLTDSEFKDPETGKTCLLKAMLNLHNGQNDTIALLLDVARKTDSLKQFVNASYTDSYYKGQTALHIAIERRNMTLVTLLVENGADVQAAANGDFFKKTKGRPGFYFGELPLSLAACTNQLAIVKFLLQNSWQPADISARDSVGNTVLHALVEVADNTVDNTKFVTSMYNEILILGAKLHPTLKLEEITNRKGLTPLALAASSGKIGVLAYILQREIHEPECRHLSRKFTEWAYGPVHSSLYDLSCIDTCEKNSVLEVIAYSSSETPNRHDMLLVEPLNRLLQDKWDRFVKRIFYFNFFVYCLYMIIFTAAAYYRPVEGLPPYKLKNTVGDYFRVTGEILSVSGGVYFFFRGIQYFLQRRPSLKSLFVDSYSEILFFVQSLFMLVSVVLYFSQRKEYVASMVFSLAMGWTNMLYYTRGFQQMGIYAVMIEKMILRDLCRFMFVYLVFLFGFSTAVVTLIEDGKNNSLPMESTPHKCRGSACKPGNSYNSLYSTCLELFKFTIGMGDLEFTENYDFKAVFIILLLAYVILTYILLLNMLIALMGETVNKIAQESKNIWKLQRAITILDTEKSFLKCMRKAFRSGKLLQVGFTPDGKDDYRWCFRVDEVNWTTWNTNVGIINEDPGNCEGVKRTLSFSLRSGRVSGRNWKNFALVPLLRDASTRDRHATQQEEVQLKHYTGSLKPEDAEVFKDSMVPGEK

Format in all cases: cell-based
In assay [1] the target is T1, Y511A mutant subunit of rat TRPV1 (YYYA and YYAA concatemers) (Rattus norvegicus, UniProt O35433, Y511A).
T1 construct: expressed in transfected cells; host or cells: TSA201 (HEK293T) cells, transient transfection

Assay [2] addresses T2, wildtype (Y) subunit of rat TRPV1 concatemers (Rattus norvegicus, UniProt O35433).
T2 construct: expressed in transfected cells; host or cells: TSA201 (HEK293T) cells, transient transfection

The target in assay [3] is T3, YYAA concatemer rat TRPV1 (two Y511A mutant subunits) (Rattus norvegicus, UniProt O35433, Y511A).
T3 construct: expressed in transfected cells; host or cells: TSA201 (HEK293T) cells, transient transfection; excised inside-out patches

On to `COc1cc(CNC(=O)CCCC/C=C/C(C)C)ccc1O` [capsaicin], for which the cooperative factor f amounted to 10.7 in assay [1] and 10.3 in assay [3]. For the same compound, the fY in assay [2] is 10.7.
